# Source: PubChem (Broad Institute)
# Compounds with a hit are over-represented: about 1.3% of the library has one in this group of screens.
# CFTR F508del cor: CFTR F508del correction in bronchial cells; CFBE cells, YFP halide quenching; stimulated with forskolin plus potentiator P3; % fluorescence drop versus neutral controls; activity (quench increase), % at 7.58 µM; 0.36% of 350,000 active; AID 720511;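 active = mean added fluorescence quench of at least 8% versus neutral control, with both replicates also reaching 8%; inconclusive = only one of the mean or replicate conditions met; inactive = mean below 8% and not both replicates reaching 8%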;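 note: cells transiently co-express mutant CFTR-F508del with the halide-sensitive YFP; corrector assay measuring rescue of mutant channel to the surface after 24 h compound exposure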
# Yeast UUG start-1: modulators of start codon recognition fidelity in yeast; AID 602363; activity score, % at 18.7 µM; S. cerevisiae UUG-firefly luciferase reporter, luminescence/redox ratio; 0.13% of 350,000 active;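 active = replicate mean at a twofold rise or more, about +100% in these data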;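 note: firefly luciferase made from a UUG start codon reports start codon fidelity; reporter light over untreated wells divided by growth signal over untreated wells; some hits fall short of that in this replicate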
# PglD DTNB: inhibitors of Campylobacter jejuni PglD acetyltransferase; AID 602405; 0.098% of 360,000 active; purified PglD enzyme, DTNB colorimetric CoA detection; inhibition, % at 12.5 µM; in the data active = inhibition above about 16%, passing the limit was not always enough; inconclusive = no clear call, values can overlap the other calls
# miR-122 sensor: blocks miR-122 activity in Huh7 sensor cells. Huh7 miR-122 Renilla luciferase sensor, 48 h; neutral wells = 0, positive control = 100. activation (reporter increase), % at 12.5 µM. 0.3% of 340,000 active. AID 602342;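 active = mean replicate activation score at least 90 and every replicate individually at or above 90; inconclusive = only one of the two criteria met; inactive = neither criterion met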;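 note: higher luciferase means less miR-122 activity so hits act as miR-122 inhibitors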
# EWS-Fli inh: EWS/Fli transcriptional activity inhibition | A673 NR0B1-luciferase reporter, viability-normalised | inhibition, % at 12.6 µM | 0.67% of 350,000 active;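 active = mean inhibition of at least 50% after viability correction, with every replicate also passing that limit; inconclusive = mean reaches 50% but only one of two replicates passes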;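 note: firefly luciferase signal divided by Alamar Blue viability fluorescence both relative to DMSO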
# LGR2 inh: blocks bursicon-induced cAMP signaling via Drosophila LGR2 | inhibition, % at 9.99 µM | AID 720647 | HEK293 LGR2, CRE-luciferase, bursicon-stimulated, 4 h | 0.35% of 380,000 active;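 active = drop in luminescence signal, shown as inhibition above about 50% in the replicate tests, limit read from the data, passing the limit was not always enough; inconclusive = probably only some replicates passing the limit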;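 note: agonist challenge used bursicon conditioned medium at about half maximal strength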
# Yeast UUG start-2: yeast start codon fidelity modulation; shares compounds with Yeast UUG start-1; S. cerevisiae UUG-start firefly luciferase, luminescence, 4 h; 100% means double the DMSO signal; activation, % at 38 µM; 540 tested, under 10 active; AID 652061;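 active = signal increase whose fitted curve reaches an absolute level of 40 at a concentration under 10 µM; inactive = activity opposite to the expected increase, or the rest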
# PglD confirm: blocks Campylobacter jejuni PglD acetyltransferase activity; shares compounds with PglD DTNB; Purified C. jejuni PglD, DTNB absorbance 412 nm; inhibition, % at 20 µM; 320 tested, under 10 active;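 active = mean inhibition across replicates of at least 20% with every single replicate also at 20% or more; inconclusive = mean inhibition at least 20% but some replicate falls below 20%; inactive = mean inhibition under 20% and not all replicates reach it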;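 note: initial rate of CoA release by acetyl transfer from AcCoA to the UDP-4-amino sugar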
# DNA binding: small molecule DNA binding by fluorescence polarization; salmon sperm DNA acridine orange fluorescence polarization; 2% of 640 active; AC35, µM (titrated, usually from 68 µM); AID 720586; shares compounds with EWS-Fli inh;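 active = fitted curve reaches a 35% signal fall AC35 below twice the sample's top valid tested dose, actives reach about 48 µM in these data; inactive = the rest, including activity in the rising direction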;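 note: lower polarization ratio signals compound binding to DNA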
# Numbers stand for hits; – = inactive; ? = inconclusive; · = no result given.
SMILES,CFTR F508del cor,Yeast UUG start-1,PglD DTNB,miR-122 sensor,EWS-Fli inh,LGR2 inh,DNA binding,others
O=C(Nc1ccccc1F)OC1CN2CCC1CC2 (configuration not stated),–,165.2,–,–,–,–,·,Yeast UUG start-2=–
O=C(Cc1cccnc1)N1CCCCN2[C@@H](CO)[C@H](c3ccc(/C=C/c4ccccc4)cc3)[C@@H]2C1,–,–,–,–,–,–,·,
CCCC(C)C1C(C#N)=C(N)Oc2c1c(=O)oc1ccccc21 (configuration not stated),·,–,24.3,–,·,–,·,PglD confirm=–
CC(=O)CC(=O)C1C(=O)N(C)C(=O)N(C)C1=O,–,·,·,·,–,–,·,
CC(=O)NC1CC2CCC(C1)N2 (configuration not stated),·,–,–,–,·,·,·,
CC(=O)NC1CC2CCCC(C1)N2 (configuration not stated),·,–,26.7,–,·,·,·,PglD confirm=–
O=C1CN=C(c2ccccc2F)c2cc(Cl)ccc2N1,–,–,–,–,–,–,·,
C=CCn1c(O)c(C=NC2CCN(Cc3ccccc3)CC2)c(=O)[nH]c1=O,–,–,20.0,–,–,–,·,PglD confirm=–
O=C1NC2C(=CC(O)C(O)C2O)c2cc3c(cc21)OCO3 (configuration not stated),–,·,·,–,56.0,104.7,–,
COC(=O)C1=C(c2cccc(OC)c2OC)C[C@@H]2CC[C@H]1N2C(=O)N1CCCCC1,–,–,–,·,–,–,·,
CC(=O)O[C@@H]1CC[C@]2(C)C3CC[C@@]4(C)C(C[C@@H](O)[C@@H]4O)C3[C@@H](OC(C)=O)C[C@H]2C1 (some centres not stated),–,·,·,–,–,–,·,
CC(=O)OC1CC(OC2C(O)CC(OC3C(O)CC(OC4CCC5(C)C(CCC6C5CCC5(C)C(C7=CC(=O)OC7)C(O)CC65O)C4)OC3C)OC2C)OC(C)C1OC1OC(CO)C(O)C(O)C1O (configuration not stated),–,·,·,–,63.5,87.0,–,
CC(=O)OC1CC2(O)C3CCC4CC(O)CCC4(C)C3CCC2(C)C1C1=CC(=O)OC1 (configuration not stated),–,·,·,–,63.0,90.3,–,
Cc1ccc(-n2c(O)c(C=NCCCn3ccnc3)c(=O)[nH]c2=O)cc1,·,·,·,·,–,–,·,
c1ccc2oc(-c3ccc4c(c3)CNCc3cnnn3-4)cc2c1,–,–,–,–,–,–,·,
C=CC12CN(C)C3C4COC(CC41)C1(C(=O)Nc4ccccc41)C32 (configuration not stated),–,–,–,–,–,–,·,
Cc1cc(O)c(CN2CCN(c3ccccc3)CC2)cc1C,·,–,–,–,·,–,·,
Cc1ccc2c(c1)C1C[N+](C)(CC(=O)c3ccc(Cl)cc3Cl)CCC1N2C(=O)c1ccc(F)cc1 (configuration not stated),–,–,–,·,–,–,·,
Cc1ccccc1-n1c(/C=C/c2ccccn2)nc2ccccc2c1=O,–,–,–,–,–,–,·,
CN1C2CCC1/C(=C/c1ccccn1)C(=O)/C2=C\c1ccccn1,–,–,–,–,80.0,101.6,–,
Cc1cc2c(C(C)C)c(O)c(O)c(C=O)c2c(O)c1-c1c(C)cc2c(C(C)C)c(O)c(O)c(C=O)c2c1O,–,–,–,–,57.8,–,–,
CCNC(=O)C1OC(n2cnc3c(N)ncnc32)C(O)C1O (configuration not stated),·,–,–,–,·,·,·,
O=C1NC(=O)N(Cc2ccc(F)cc2)C(=O)/C1=C\C=C\c1ccco1,–,–,–,–,54.8,–,–,
Cc1cc(C)cc(N2C(=O)NC(=O)/C(=C\C=C\c3ccco3)C2=O)c1,?,·,·,–,61.1,–,–,
O=C1NC(=O)N(c2ccccc2)C(=O)/C1=C\C=C\c1ccccc1,–,–,–,–,57.7,–,–,
SMILES,CFTR F508del cor,Yeast UUG start-1,PglD DTNB,miR-122 sensor,EWS-Fli inh,LGR2 inh,DNA binding,others
CN1CCC(O)(c2ccc(Cl)cc2)C(C(=O)c2ccc(Cl)cc2)C1 (configuration not stated),–,·,·,·,–,–,·,
Cc1ccc(S(=O)(=O)N2Cc3cc(N4CCOCC4)ccc3-n3nncc3C2)cc1,–,–,–,–,–,–,·,
N#CC12CC(=O)N1Cc1cnnn1-c1ccccc12 (configuration not stated),–,–,–,–,–,–,·,
C[C@]12CC[C@H]3[C@@H](CC[C@]4(O)C[C@@H](O)CC[C@]34C=O)[C@@]1(O)CC[C@@H]2C1=CC(=O)OC1,–,–,–,–,79.0,84.4,–,
C[C@]12CCC3C(CCC4=CC(O)CC[C@@]43/C=N/O)C1(O)CCC2C1=CC(=O)OC1 (some centres not stated),–,·,·,·,68.9,81.9,–,
CC12CCC3C(CCC4(O)CC(O)CCC34C=NO)C1(O)CCC2C1=COC(=O)C1 (configuration not stated),–,·,·,–,73.9,·,–,
CC[C@@H]1C[C@H]2CC[C@H](O2)[C@H](C)C(=O)O[C@@H](C)C[C@@H]2CC[C@@H](O2)[C@@H](C)C(=O)O[C@H](C)C[C@H]2CC[C@H](O2)[C@H](C)C(=O)O[C@@H](C)C[C@@H]2CC[C@@H](O2)[C@@H](C)C(=O)O1,–,·,·,·,53.8,–,–,
